Our source for the ATF4 protein expression and eIF2α phosphorylation values is patent US20260382588A1, “COMPOUNDS CONTAINING A HYDROXYPHENYL MOIETY AND THEIR USE” (published 2026).

This experiment relates to PERK. Nature of the experiment: eIF2α phosphorylation and ATF4 protein expression. The following applies: data not shown. The protocol:
Western blotting—All IRE1 signaling analyses were carried out as described previously (S. Lhomond et al., Methods Mol. Biol., 2015, 1292, 177-194). Cells grown on 6 well plates were washed with PBS and lysed with RIPA lysis buffer at 4 °C, over 25 minutes to extract protein. IRE1 and phosphorylated IRE1 were stained using anti-IRE1 antibody (Anti-human; rabbit polyclonal; SantaCruz Biotechnologies, H-190) and pS724-IRE1 antibody (Anti-human; rabbit polyclonal; Abcam, ab48187), respectively. The phosphorylated form of eIF2α was stained with anti-phospho-eIF2α (Ser51) Antibody #9721 (CellSignalling®). Actin was used as a loading control (P-Actin (C4): sc-47778; SantaCruz Biotechnologies). […]
The effect of compounds 28 (Z4P) and 33 (Z4) on RIDD was then tested by interrogating the levels of the known RIDD target Sparc mRNA (46) in U87 cells upon treatment with the transcriptional blocker actinomycin D and the ER stressor tunicamycin. […] The expression of downstream effectors of PERK and ATF6 was evaluated. […] Consequently, to further document the characteristics of compound 33 (Z4) at the protein level, U251 (commonly available GB cell line) and RADH87 (G. Auf et al., Proc Natl Acad Sci USA, 2010, 107, 15553-15558) (human tumor-derived primary GB cell line) cells were treated and their proteome were evaluated. […]

Regarding `Cc1ccc(C(N)=O)cc1NC(=O)NC(C)CCc1ccc(O)cc1` (racemic), the ATF4 protein expression result is listed as “not altered” and the eIF2α phosphorylation result is reported as “not altered”.
